The values that follow come from ChEMBL document CHEMBL1177670 (Bioorg Med Chem, 2010).

Chains of the proteins cited; added tags and fusions are not shown.
UniProt Q60492, whole entry: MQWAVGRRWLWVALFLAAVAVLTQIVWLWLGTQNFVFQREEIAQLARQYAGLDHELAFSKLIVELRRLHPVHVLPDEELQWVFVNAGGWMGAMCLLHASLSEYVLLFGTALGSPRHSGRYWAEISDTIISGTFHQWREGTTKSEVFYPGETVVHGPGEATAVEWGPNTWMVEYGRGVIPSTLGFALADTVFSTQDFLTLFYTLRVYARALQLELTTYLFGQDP
UniProt P21917, whole entry: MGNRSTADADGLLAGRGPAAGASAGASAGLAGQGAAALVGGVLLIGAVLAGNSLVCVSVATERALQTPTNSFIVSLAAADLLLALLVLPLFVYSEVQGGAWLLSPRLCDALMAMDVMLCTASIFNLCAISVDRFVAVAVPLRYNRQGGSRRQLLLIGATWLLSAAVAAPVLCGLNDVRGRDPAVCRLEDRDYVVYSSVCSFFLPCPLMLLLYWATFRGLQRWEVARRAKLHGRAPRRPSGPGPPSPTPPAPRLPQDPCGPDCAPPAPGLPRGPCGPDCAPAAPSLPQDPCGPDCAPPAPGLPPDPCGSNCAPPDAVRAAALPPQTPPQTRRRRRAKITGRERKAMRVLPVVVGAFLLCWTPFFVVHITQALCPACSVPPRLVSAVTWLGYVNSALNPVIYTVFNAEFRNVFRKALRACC

The term Ki denotes the dissociation constant of the complex between target and ligand, obtained from inhibition or displacement.

The first assay concerns the target Sigma non-opioid intracellular receptor 1 (Cavia porcellus, UniProt Q60492). Kind of assay: biochemical.
On to `COc1ccc2[nH]cc(CN3CCC(O)(c4ccccc4)CC3)c2c1`, for which affinity was put at a Ki of 1530 nM.
Same read-out and setting: the same measure for `OC1(c2ccc(I)cc2)CCN(Cc2c[nH]c3ccccc23)CC1`: 2 nM; for `OC1(c2ccc(Br)cc2)CCN(Cc2cc3ccccc3o2)CC1`: 2.45 nM; for `OC1(c2ccc(I)cc2)CCN(Cc2cc3ccccc3o2)CC1`: 1.41 nM.
With `OC1(c2ccc(Br)cc2)CCN(Cc2c[nH]c3ccc(OCCF)cc23)CC1`, the Ki stood at 227 nM.
Regarding `OC1(c2ccc(I)cc2)CCN(Cc2coc3ccccc23)CC1`, the Ki was 0.51 nM.
On the same count and under the same terms, for `OC1(c2ccc(Br)cc2)CCN(Cc2coc3ccccc23)CC1` the value was 0.59 nM.
Same read-out and setting: for `OC1(c2ccc(Br)cc2)CCN(Cc2c[nH]c3ncccc23)CC1` the value was 15.1 nM.
On the same count and under the same terms, the same measure for `COc1cccc2[nH]cc(CN3CCC(O)(c4ccc(I)cc4)CC3)c12`: 881 nM.

Another assay has as its target D(4) dopamine receptor (Homo sapiens, UniProt P21917). Briefly: biochemical.
In turn, `OC1(c2ccccc2)CCN(Cc2cc3ccccc3s2)CC1` showed a Ki of 377 nM.
